What was measured:
cdk1/cyclin B (CDC2) = cdk1/cyclin B (CDC2) (Homo sapiens, UniProt P06493); assay: CDK inhibition assay, cdk1/cyclin B (CDC2) kinase, histone phosphorylation; assay type: biochemical; settings: read-out: CDC2 IC50
IκB-α kinase = IκB-α kinase inhibition, in vitro kinase assay; settings: read-out: IκB-α IC50
[1] = tested on: CEM (human lymphoblastoid leukemia); assay: In vitro cytotoxic activity, Calcein AM; settings: read-out: CEM GI50, three days
B16 = assay: In vitro cytotoxic activity, Calcein AM; settings: read-out: B16 GI50, three days
[2] = target: cdc2a-MS protein (plant CDK, cdc2Ms kinase) (Vicia faba, UniProt A0AAV0YZ35); assay: CDK inhibitory activity on plant kinases (plant CDK); settings: read-out: Cdc2a IC50, histone H1 phosphorylation
MMK1 protein kinase = MMK1 protein kinase (Vicia faba, UniProt A0AAV1B7B8); assay: MMK1 protein kinase activity; settings: read-out: MMK1 IC50

Chains of the proteins cited; added tags and fusions are not shown. Residues count along the entry.
UniProt P06493, whole entry: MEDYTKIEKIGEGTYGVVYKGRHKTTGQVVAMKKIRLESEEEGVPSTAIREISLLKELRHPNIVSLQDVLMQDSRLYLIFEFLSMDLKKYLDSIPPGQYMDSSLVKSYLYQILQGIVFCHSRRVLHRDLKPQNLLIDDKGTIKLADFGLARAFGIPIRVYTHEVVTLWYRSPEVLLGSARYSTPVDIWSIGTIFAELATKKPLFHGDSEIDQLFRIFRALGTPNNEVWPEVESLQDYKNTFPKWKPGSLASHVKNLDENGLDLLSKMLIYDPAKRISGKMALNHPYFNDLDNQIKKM
UniProt A0AAV0YZ35, 1-294: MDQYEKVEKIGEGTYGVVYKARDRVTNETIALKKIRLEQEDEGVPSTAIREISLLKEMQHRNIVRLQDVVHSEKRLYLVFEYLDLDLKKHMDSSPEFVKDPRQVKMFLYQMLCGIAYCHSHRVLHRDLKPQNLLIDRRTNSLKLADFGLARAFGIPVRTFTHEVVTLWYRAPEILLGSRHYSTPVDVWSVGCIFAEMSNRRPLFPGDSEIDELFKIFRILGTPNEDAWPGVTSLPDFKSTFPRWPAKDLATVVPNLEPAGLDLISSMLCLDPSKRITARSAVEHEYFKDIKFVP
UniProt A0AAV1B7B8, 1-394: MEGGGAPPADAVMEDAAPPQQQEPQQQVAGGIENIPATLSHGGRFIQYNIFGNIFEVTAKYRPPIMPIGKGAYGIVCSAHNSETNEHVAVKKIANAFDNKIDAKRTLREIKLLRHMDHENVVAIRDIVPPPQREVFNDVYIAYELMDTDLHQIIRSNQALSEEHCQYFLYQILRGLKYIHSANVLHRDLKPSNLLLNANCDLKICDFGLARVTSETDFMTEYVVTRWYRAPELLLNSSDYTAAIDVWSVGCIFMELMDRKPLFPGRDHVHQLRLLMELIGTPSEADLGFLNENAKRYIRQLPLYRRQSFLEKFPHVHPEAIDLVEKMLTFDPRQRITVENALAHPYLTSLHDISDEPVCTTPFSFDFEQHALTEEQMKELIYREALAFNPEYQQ
UniProt P14635, whole entry partner: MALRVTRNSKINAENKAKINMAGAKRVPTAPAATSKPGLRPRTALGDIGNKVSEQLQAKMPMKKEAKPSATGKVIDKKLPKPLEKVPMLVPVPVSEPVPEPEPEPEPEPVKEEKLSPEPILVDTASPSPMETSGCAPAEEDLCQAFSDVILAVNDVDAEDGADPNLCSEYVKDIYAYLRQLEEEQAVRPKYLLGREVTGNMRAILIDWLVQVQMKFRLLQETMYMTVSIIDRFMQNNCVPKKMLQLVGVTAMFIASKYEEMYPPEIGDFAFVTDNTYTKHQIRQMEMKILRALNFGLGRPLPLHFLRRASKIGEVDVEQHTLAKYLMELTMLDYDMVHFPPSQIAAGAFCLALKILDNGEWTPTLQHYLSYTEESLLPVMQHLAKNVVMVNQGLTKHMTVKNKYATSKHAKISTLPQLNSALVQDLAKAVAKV

Row | IC50 (cdk1/cyclin B (CDC2)) [nM] | IC50 (IκB-α kinase) [nM] | Compound | GI50 [1] [nM] | GI50 (B16) [nM] | IC50 [2] [nM] | IC50 (MMK1 protein kinase) [nM]
1 | 10 | 35 | Cc1n[nH]c2c(NCc3cc(O)c(Cl)cc3O)nc(NCCO)nc12 |  |  |  | 
2 | 8 | 15 | CC[C@H](CO)Nc1nc(NCc2cc(O)c(Cl)cc2O)c2[nH]nc(C(C)C)c2n1 |  |  |  | 
3 |  |  | Cc1n[nH]c2c(NCc3ccc(Cl)c(O)c3O)nc(NCCO)nc12 | 2100 | 3200 | 90 | 220
4 |  |  | Cc1n[nH]c2c(NCc3c(O)cc(Cl)cc3O)nc(NCCO)nc12 | 1800 | 2500 | 60 | 160

Row | Compound | IC50 (cdk1/cyclin B (CDC2)) [nM] | IC50 (IκB-α kinase) [nM] | GI50 [1] [nM] | GI50 (B16) [nM] | IC50 [2] [nM] | IC50 (MMK1 protein kinase) [nM]
5 | CC[C@H](CO)Nc1nc(NCc2c(O)cc(Cl)cc2O)c2[nH]nc(C(C)C)c2n1 | 1 | 2 | 1600 | 2900 | 1 | 2
